Molecular target: XIAP BIR-3 (Homo sapiens, UniProt P98170)
Test: Fluorescence polarization binding to XIAP BIR-3 (competition with AbuRPF-K(5-Fam)-NH2)
Settings: XIAP BIR-3 (default where cell does not indicate otherwise); reported as range class
Method: (§1) The binding affinities of the compounds are reported as a Kd value. Briefly, various concentrations of test peptides were mixed with 5 nM of the fluorescently labeled peptide (i.e., a mutated N-terminal Smac peptide—AbuRPF-K(5-Fam)-NH2) and 40 nM of the BIR3 for 15 min at RT in […] of 0.1M Potassium Phosphate buffer, pH 7.5 containing […] bovine g-globulin. Following incubation, the polarization values (mP) were measured on a Victor2V (available from PerkinElmer Life Sciences) using a 485 nm excitation filter and a 520 nm emission filter. The reported Kd values are supplied as ranges (A=<0.1 μM, B=0.1 μM to C=>1 μM to 10 μM, D=>10 μM) and, unless otherwise indicated, are the Kd for XIAP BIR-3.

Protein sequences, listed by entry. Tags and fused reporters are not part of them. Residues count along the entry.
UniProt P98170, 241-356 limits assumed: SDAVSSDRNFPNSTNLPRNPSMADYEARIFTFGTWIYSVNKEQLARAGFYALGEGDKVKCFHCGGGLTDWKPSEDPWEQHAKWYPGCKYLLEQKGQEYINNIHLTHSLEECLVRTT
UniProt Q13490, 266-343 limits assumed: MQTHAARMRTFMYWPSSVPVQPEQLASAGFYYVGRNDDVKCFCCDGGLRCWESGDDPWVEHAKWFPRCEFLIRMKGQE

| Kd | SMILES |
| --- | --- |
| > 10000 nM | CC[C@H](NC)C(=O)N[C@H](C(=O)N1CC[C@H](OC)[C@H]1Cc1cn(C)c2cc(F)ccc12)C(C)(C)C |
| < 100 nM | CN[C@@H](C)C(=O)N[C@H](C(=O)N1CC[C@@H](OC)[C@H]1Cc1c[nH]c2cc(F)ccc12)[C@@H](C)OC |
| < 100 nM | CC[C@H](NC)C(=O)N[C@H](C(=O)N1CCC[C@H]1Cc1c[nH]c2ncccc12)C(C)(C)C |
| < 100 nM | CN[C@@H](CO)C(=O)N[C@H](C(=O)N1CCC[C@H]1Cc1c[nH]c2ncccc12)[C@@H](C)OC |
| < 100 nM | CN[C@@H](C)C(=O)N[C@H](C(=O)N1CC[C@H](O)[C@H]1Cc1c[nH]c2cc(F)ccc12)C1CCCCC1 |
| < 100 nM | CCN[C@@H](C)C(=O)N[C@H](C(=O)N1CCC[C@H]1Cc1c[nH]c2ncccc12)C(C)(C)C |
| > 10000 nM | CN[C@@H](C)C(=O)N[C@H](C(=O)N1CC[C@H](OC)[C@H]1Cc1cn(C)c2cc(F)ccc12)C(C)(C)C |
| < 100 nM | CCN[C@@H](C)C(=O)N[C@H](C(=O)N1CC[C@H](O)[C@H]1Cc1c[nH]c2cc(F)ccc12)[C@@H](C)OC |
| > 10000 nM | CCN[C@@H](C)C(=O)N[C@H](C(=O)N1CC[C@H](OC)[C@H]1Cc1cn(C)c2cc(F)ccc12)C(C)(C)C |
| > 100 nM | CCN[C@@H](CC)C(=O)N[C@H](C(=O)N1CCC[C@H]1Cc1c[nH]c2ncccc12)C(C)(C)C |
| 1000 to 10000 nM | CN[C@@H](C)C(=O)N[C@H](C(=O)N1CC[C@H](OC)[C@H]1Cc1c[nH]c2ncccc12)C(C)(C)C |
| < 100 nM | CN[C@@H](C)C(=O)N[C@H](C(=O)N1CC[C@@H](O)[C@H]1Cc1c[nH]c2cc(F)ccc12)[C@@H](C)OC |

Molecular target: cIAP-1 BIR-3 (Homo sapiens, UniProt Q13490)
Test: Fluorescence polarization binding to cIAP-1 BIR-3 (competition with AbuRPF-K(5-Fam)-NH2)
Settings: cells marked (cIAP-1): cIAP-1 BIR-3; reported as range class
Method: as §1

| Kd | SMILES |
| --- | --- |
| > 100 nM | CC[C@H](NC)C(=O)N[C@@H](COC)C(=O)N1CC[C@@H](O)[C@H]1Cc1c(-c2ccc(F)cc2)[nH]c2ccccc12 |
| < 100 nM | CC[C@H](NC)C(=O)N[C@H](C(=O)N1CC[C@@H](O)[C@H]1Cc1c(-c2ccc(F)cc2)[nH]c2ccccc12)C(C)C |
| < 100 nM | CN[C@@H](C)C(=O)N[C@H](C(=O)N1C[C@@H](O)C[C@H]1C[C@H]1CN(C(C)=O)c2ccccc21)C1CCCCC1 |
| < 100 nM | CCc1ccc2c(c1)[C@H](C[C@@H]1C[C@H](O)CN1C(=O)[C@@H](NC(=O)[C@H](C)NC)C1CCCCC1)CN2C(C)=O |

Reference: US20110288116A1, “IAP INHIBITORS” (TETRALOGIC PHARMACEUITCAL CORPORATION, priority 2008, published 2011)
